Experimental data taken from patent US9040563B2, “Dual inhibitors of farnesyltransferase and geranylgeranyltransferase I” (H. Lee Moffitt Cancer Center and Research Institute, Inc., priority 2010, dated 2015).
Where two headings read alike, the source gives them in different places.

Amino acid sequences for entries named in this document (tags omitted).
UniProt P49356, whole entry: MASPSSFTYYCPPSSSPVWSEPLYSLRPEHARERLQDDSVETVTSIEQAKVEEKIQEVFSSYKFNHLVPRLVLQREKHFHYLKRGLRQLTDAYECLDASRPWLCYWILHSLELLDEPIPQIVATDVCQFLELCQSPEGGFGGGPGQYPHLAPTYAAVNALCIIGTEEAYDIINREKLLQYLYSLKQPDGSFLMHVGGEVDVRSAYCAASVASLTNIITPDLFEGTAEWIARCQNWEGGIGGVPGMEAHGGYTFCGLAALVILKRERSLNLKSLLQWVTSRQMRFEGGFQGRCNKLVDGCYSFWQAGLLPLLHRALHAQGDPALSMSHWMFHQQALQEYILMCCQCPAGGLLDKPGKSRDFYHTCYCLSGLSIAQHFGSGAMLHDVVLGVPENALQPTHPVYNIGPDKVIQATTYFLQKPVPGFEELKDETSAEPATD

Tests used:
hFTase = hFTase (Homo sapiens, UniProt P49354+P49356); assay: In vitro hFTase inhibition: incorporation of [3H]FPP into recombinant H-Ras-CVLS; format: biochemical
[1] = test system: geranylgeranylation of Rap1A; assay: Whole cell inhibition of Rap1A processing (geranylgeranylation), immunoblot, oncogenic H-Ras-transformed NIH3T3 cells; conditions: read-out: Rap1A processing IC50, n = 3 unless stated
farnesylation of H-Ras = assay: Whole cell inhibition of H-Ras processing (farnesylation), immunoblot, oncogenic H-Ras-transformed NIH3T3 cells

selectivity (ratio of GGTase-I to FTase IC50s) (hFTase; GGTase-I IC50 / hFTase IC50): 8.8
IC50 (hFTase; read-out: hFTase IC50, in vitro, average of three independent assays (n = 3) unless stated, errors are standard deviations): 60 nM
GGTase-I/FTase selectivity (hFTase; selectivity for hFTase over GGTase-I): about 9 fold
IC50 [1]: > 10000 nM
IC50 (farnesylation of H-Ras; read-out: H-Ras processing IC50 (whole cell), NIH 3T3, values in nM): 90 nM
IC50 (farnesylation of H-Ras; read-out: H-Ras processing IC50, oncogenic H-Ras-transformed NIH3T3, n = 3 unless stated): 100 nM
SMILES: Cn1cnc(S(=O)(=O)N(CCN(Cc2cncn2C)c2ccc(C#N)cc2)CC2CCCCC2)c1
